Measured values taken from patent US20090275083A1, “Isolated peptides having phospholipase inhibitory activity” (published 2009).

T1: Thermomyces lanuginosus lipase (TLL) variant N248G/Q249G/P250T/N251L/I252G/P253L (Thermomyces lanuginosus)
T1 chain: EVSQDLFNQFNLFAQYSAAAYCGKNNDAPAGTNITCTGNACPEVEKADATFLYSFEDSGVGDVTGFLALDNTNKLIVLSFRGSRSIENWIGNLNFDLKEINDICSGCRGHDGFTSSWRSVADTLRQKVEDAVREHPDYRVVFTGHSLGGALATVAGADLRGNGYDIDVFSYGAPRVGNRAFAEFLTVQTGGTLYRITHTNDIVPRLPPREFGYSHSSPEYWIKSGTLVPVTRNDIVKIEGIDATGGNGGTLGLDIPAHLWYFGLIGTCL


Target: T1, Thermomyces lanuginosus lipase (TLL) …
Assay: cell-based or functional assay

Row | Binder | IC50 (half maximal inhibitory concentration; p-NP butyrate hydrolysis) (peptide/lipase ratio)
1 | ATMTDAELEKKLNSYVNMDKEYVKNNQARS (modifications not checked) [Peptide P12 (Q303N)] | 1690
2 | ATMTDAELEKKLNSYVQMDAEYVKNNQARS (modifications not checked) [Peptide P13 (K306A)] | 1720
